Values quoted from earlier work in patent US20100226991A1, “SOLID INORGANIC/ORGANIC HYBRID WITH MODIFIED SURFACE” (CENTRE NATIONAL DE LA RECHERCHE SCIENTIFIQUE - CNRS-, priority 2007, published 2010).

Settings: in ethanol and in DMSO; cited from earlier work

For Paclitaxel, the solubility is listed as “about 50 g/L”.
